# The entries are a selection whose mix differs from that of the whole data set. Active and inactive are the calls of the source.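 The calls were made as follows: active = B-score of the integrated calcium signal more than 4 SD below the library mean, with starting fluorescence not abnormally high; inactive = the rest.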
# Experiment: enhancers of RGS4 function in calcium signaling – cell-based, HEK293 M3R inducible RGS4, calcium flux, primary screen (AID 463111);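 as to B-score: negative B-score means reduced calcium response which marks RGS4 activation or potentiation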
# Details: HEK293 M3R/inducible RGS4, carbachol calcium flux Fluo4, at 10 µM; hits give low values
# In short: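 Reagent: ECmax carbachol challenge; Test system: M3R-expressing HEK293 line, RGS4 induced by doxycycline; Schedule: overnight RGS4 induction, 30 min dye load 37 °C, 20 min compound RT; Detection: calcium dye Fluo4 fluorescence; Read-out: Agonist-evoked peak-minus-minimum fluorescence over baseline, integrated ratio, B score.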
Structure (SMILES),outcome,B-score
CP(=O)(Nc1ccc(Cl)cc1Cl)Oc1ccccc1 (stereo not drawn),inactive,–
CP(=O)(OCCOc1ccccc1)OCCOc1ccccc1,inactive,–
Nc1cccc2ccc([As](=O)(O)O)cc12,inactive,–
CCN(N=Nc1nonc1N)c1nonc1N,inactive,–
O=[N+]([O-])c1cc([N+](=O)[O-])c(CCN2CCOCC2)c([N+](=O)[O-])c1,inactive,–
Cc1nc2ccc3ccccc3c2o1.O=[N+]([O-])c1cc([N+](=O)[O-])c(O)c([N+](=O)[O-])c1,inactive,–
COc1ccc(OP(C)(=O)Nc2ccccc2Br)cc1 (stereo not drawn),inactive,–
COc1ccccc1OP(C)(=O)Nc1ccc(C)c(C)c1 (stereo not drawn),inactive,–
Cc1ccc(NP(=O)(Oc2ccccc2F)Oc2ccccc2F)nc1,inactive,–
CN(C(=O)Cc1ccc(Cl)c(Cl)c1)[C@H]1CCCC[C@@H]1N1CCCC1,inactive,–
Cc1cc(SC(NC(=O)c2ccc(F)cc2)C(Cl)(Cl)Cl)ncn1 (stereo not drawn),inactive,–
CCOP(=O)(Nc1ccccc1)OCC,inactive,–
O=P(Nc1nc2ccc(Cl)cc2s1)(c1ccccc1)c1ccccc1,inactive,–
Cc1cc(C)cc(OP(C)(=O)Nc2cccc(C(F)(F)F)c2)c1 (stereo not drawn),inactive,–
CC(=O)Nc1ccc([As](=O)(O)O)cc1,inactive,–
O=C(O)c1ccccc1[As](=O)(O)O,inactive,–
CCc1ccc(OP(C)(=O)O)cc1,inactive,–
COc1ccccc1OP(C)(=O)Nc1ccc(C)cc1C (stereo not drawn),inactive,–
CP(=O)(Nc1ccccn1)Oc1ccccc1 (stereo not drawn),inactive,–
O=C(NC(Sc1ccncn1)C(Cl)(Cl)Cl)c1ccccc1 (stereo not drawn),inactive,–
Oc1ccccc1CNc1ccccn1,inactive,–
Cc1c(NP(C)(=O)Oc2ccc(C(C)C)cc2)c(=O)n(-c2ccccc2)n1C (stereo not drawn),inactive,–
Nc1cc(N)c2nonc2c1[N+](=O)[O-],inactive,–
CC(C)CC(=O)NC(Sc1ccc(Cl)cc1)C(Cl)(Cl)Cl (stereo not drawn),inactive,–
O=[N+]([O-])c1cc([N+](=O)[O-])c(Nc2ccccn2)c([N+](=O)[O-])c1,inactive,–

Structure (SMILES),outcome,B-score
Clc1ccc(Cl)c(NC2=NCC(CBr)S2)c1 (stereo not drawn),inactive,–
CN(C)CCOC(=O)C(O)(c1ccccc1)C1CCCC1 (stereo not drawn),inactive,–
Cc1ccc(OP(=O)(Nc2nccs2)Oc2ccc(C)cc2)cc1,inactive,–
COc1ccccc1OP(=O)(Nc1ccc(C)cn1)Oc1ccccc1OC,inactive,–
COc1ccc(OP(C)(=O)Nc2ccccn2)cc1 (stereo not drawn),inactive,–
Cc1ccc(N/C(=N/P(=O)(N2CCOCC2)N2CCOCC2)N2CCOCC2)cc1,inactive,–
COc1ccccc1OP(C)(=O)Nc1ccc(Br)cc1 (stereo not drawn),inactive,–
NC(=O)c1cc([N+](=O)[O-])cc([N+](=O)[O-])c1N,inactive,–
CC1CCN(C(=O)Oc2c(Cl)cc(Cl)c3cccnc23)CC1,inactive,–
CN(C)C(=O)OCCc1n(C)cc[n+]1C,inactive,–
CN(C)C(=O)c1c([N+](=O)[O-])cc([N+](=O)[O-])cc1[N+](=O)[O-],inactive,–
CC(C)=N/N=C(\N)N[N+](=O)[O-],inactive,–
CP(=O)(Nc1ccc(Cl)cc1)Oc1ccc(F)cc1 (stereo not drawn),inactive,–
CCN(/C(=N/P(=O)(N1CCOCC1)N1CCOCC1)N1CCOCC1)c1ccc(OC)cc1,inactive,–
C[N+]1=C2C=CC=CC=C2SC12C([N+](=O)[O-])=CC([N+](=O)[O-])=C[C-]2[N+](=O)[O-] (stereo not drawn),inactive,–
COc1ccccc1OP(C)(=O)Nc1ccccc1Br (stereo not drawn),inactive,–
CC(C)(C)c1ccc(OP(C)(=O)O)cc1,inactive,–
Nc1ccc([As](=O)(O)c2ccc(N)cc2)cc1,inactive,–
CCc1ccc(OP(C)(=O)Nc2cccnc2)cc1 (stereo not drawn),inactive,–
CCc1nc2c(n1)c1c(non1O)c1c2no[n+]1[O-],inactive,–
O=[N+]([O-])c1cc([N+](=O)[O-])c(CCNc2ccccc2)c([N+](=O)[O-])c1,inactive,–
Cc1ccc(NP(=O)(Oc2ccccc2)Oc2ccccc2)nc1,inactive,–
CP(=O)(Oc1ccccc1)N1CCOC1=O (stereo not drawn),inactive,–
O=C(OCCCN1CCCC1)C(O)(c1ccccc1)C1CCCCC1 (stereo not drawn),–,active: -9.29
O=[N+]([O-])c1cccc2n[nH]nc12,inactive,–

Structure (SMILES),outcome,B-score
CC(=O)N1C2C3N(C(C)=O)C1C1N(C(C)=O)C(C(N1C(C)=O)N3C(C)=O)N2C(C)=O,inactive,–
COc1ccccc1OP(C)(=O)Nc1c(C)n(C)n(-c2ccccc2)c1=O (stereo not drawn),inactive,–
COc1ccc(C2=NCC(CBr)S2)cc1 (stereo not drawn),inactive,–
COc1ccc(OP(C)(=O)Nc2ccc(Br)cc2)cc1 (stereo not drawn),inactive,–
CCN(CC)CC(O)COC(=O)C(O)(c1ccccc1)C1CCCCC1 (stereo not drawn),inactive,–
O=C(O)CNc1ccc([As](=O)(O)O)cc1,inactive,–
O=[N+]([O-])c1cccc(NC2=NCC(CBr)S2)c1 (stereo not drawn),inactive,–
O=[N+]([O-])c1ncn(CCn2ncnc2[N+](=O)[O-])n1,inactive,–
CC(C)(C)C(=O)NC(Sc1ccncn1)C(Cl)(Cl)Cl (stereo not drawn),inactive,–
CP(=O)(OC12CC3CC(CC(C3)C1)C2)OC12CC3CC(CC(C3)C1)C2,inactive,–
O=C(Nc1cc([As](=O)(O)O)ccc1O)c1ccccc1,inactive,–
CCOC(=O)c1ccc(NP(C)(=O)Oc2ccc(Cl)cc2)cc1 (stereo not drawn),inactive,–
Nc1ccc2c(ccc3cccnc32)n1.O=[N+]([O-])c1cc([N+](=O)[O-])c(O)c([N+](=O)[O-])c1,inactive,–
C(Cc1nn[nH]n1)Cc1nn[nH]n1,inactive,–
Nc1ccc([As](=O)(O)c2ccc([N+](=O)[O-])cc2)cc1,inactive,–
O=[N+]([O-])c1cc([N+](=O)[O-])c(NCC2CCS(=O)(=O)C2)c([N+](=O)[O-])c1 (stereo not drawn),inactive,–
Cc1cc(-c2cccc3ccccc23)c(C)cn1.O=[N+]([O-])c1cc([N+](=O)[O-])c(O)c([N+](=O)[O-])c1,inactive,–
O=[As](O)(c1ccccc1)c1ccc(O)cc1,inactive,–
O=[N+]([O-])c1ccc(O)c(/C=N/Nc2ccc([N+](=O)[O-])cc2[N+](=O)[O-])c1,inactive,–
O=[N+]([O-])c1ncn(CCn2cnc([N+](=O)[O-])n2)n1,inactive,–
O=[N+]([O-])c1ccc(OP2(=O)COCCO2)cc1 (stereo not drawn),inactive,–
CC(=O)NC(SC(=S)N(C)C)C(Cl)(Cl)Cl (stereo not drawn),inactive,–
COc1ccc(NP(C)(=O)Oc2ccccc2OC)cc1 (stereo not drawn),inactive,–

# Reference: PubChem BioAssay AID463111 (Johns Hopkins Ion Channel Center, 2010)
